Test results: publication PMC11370232, “Repurposing of a library for high-content screening of inhibitors against Echinococcus granulosus” (Parasites & Vectors, 2024)
Converted amounts (≈) assume the structure as drawn. Where a name gives a salt, the structure may show the parent alone. Read-outs that look alike come from different tables or passages of the source.

Tested on: E. granulosus PSCs
Experiment: microbe, parasite or virus in culture
Conditions: Echinococcus granulosus; for MIC90 / killing at 0.5 µM / killing at 2 µM / killing at 10 µM / killing at 50 µM: 72 h; for MIC90: read-out: MIC90 (minimum inhibitory concentration causing a 90% death of PSCs); for killing at 0.5 µM: read-out: Anti-echinicoccus activity, Dose confirmaiton 0.5uM, second-stage dose-response, 0.5 μM, PSCs; for killing at 2 µM: read-out: Anti-echinicoccus activity, Dose confirmaiton 2uM, second-stage dose-response, 2 μM, PSCs; for killing at 10 µM: read-out: Anti-echinicoccus activity, Dose confirmaiton 10uM, second-stage dose-response, 10 μM, PSCs
[1] = read-out: Anti-echinococcus activity % of death, 0.5uM
[2] = read-out: Anti-echinococcus activity % of death, 2uM
[3] = read-out: Anti-echinococcus activity % of death, 10uM
[4] = read-out: Anti-echinococcus activity % of death, 50uM
[5] = read-out: Anti-echinicoccus activity, Dose confirmaiton 50uM, second-stage dose-response, 50 μM, PSCs
[6] = read-out: Anti-echinicoccus activity, Initiate hits 50uM, primary screen, 50 μM, PSCs, 3-day incubation, PI staining (death rate of PSCs)
[7] = read-out: Anti-echinococcus activity % of death, 0.5uM, E. granulosus PSCs, compound at 0.5uM
[8] = read-out: Anti-echinococcus activity % of death, 10uM, E. granulosus PSCs, compound at 10uM
[9] = read-out: Anti-echinococcus activity % of death, 50uM, E. granulosus PSCs, compound at 50uM
[10] = read-out: Anti-echinococcus activity % of death, 2uM, E. granulosus PSCs, compound at 2uM
[11] = read-out: Anti-echinococcus activity % of death

CC1(C)CC[C@]2(NC(=O)C(C)(F)F)CC[C@]3(C)[C@H](C(=O)C=C4[C@@]5(C)C=C(C#N)C(=O)C(C)(C)[C@@H]5CC[C@]43C)[C@@H]2C1 [Omaveloxolone]
MIC90: 6.9 µM (≈ 3.83 µg/mL)

COc1c(OC)c(OC(C)=O)c2cc(Cl)ccc2c1OC(C)=O [LONAPALENE]
mortality at 0.5 µM [1]: 0% | mortality at 2 µM [2]: 0% | mortality at 10 µM [3]: 50% | mortality at 50 µM [4]: 100%

N#Cc1c(NC(=O)CCl)sc2c1CCCCC2 [KPS-0373]
mortality at 0.5 µM [1]: 0% | mortality at 2 µM [2]: 0% | mortality at 10 µM [3]: 80% | mortality at 50 µM [4]: 100%

COC(=O)[C@]12CCC(C)(C)C[C@H]1[C@H]1C(=O)C=C3[C@@]4(C)C=C(C#N)C(=O)C(C)(C)[C@@H]4CC[C@@]3(C)[C@]1(C)CC2 [Bardoxolone methyl, reference compound]
killing at 0.5 µM: 0% | killing at 2 µM: 0% | killing at 10 µM: 40% | killing at 50 µM [5]: 100% | killing at 50 µM [6]: 100% | MIC90: 3.8 µM (≈ 1.92 µg/mL) | mortality at 0.5 µM [7]: 0% | mortality at 10 µM [8]: 100% | mortality at 50 µM [9]: 100%

O=C(C=C(O)c1nnc[nH]1)c1ccc(Cc2ccc(F)cc2)o1 [S-1360]
mortality at 0.5 µM [1]: 0% | mortality at 2 µM [2]: 0% | mortality at 10 µM [3]: 30% | mortality at 50 µM [4]: 100%

O=C(C[n+]1ccn(CC(OCc2ccc(Cl)cc2Cl)c2ccc(Cl)cc2Cl)c1)c1ccc(F)cc1 (stereo not shown) [F[…]]
mortality at 0.5 µM [1]: 0% | mortality at 2 µM [2]: 0% | mortality at 10 µM [3]: 0% | mortality at 50 µM [4]: 100%

CCN(CC)CCN(Cc1ccc(-c2ccc(C(F)(F)F)cc2)cc1)C(=O)Cn1c(SCc2ccc(F)cc2)nc(=O)c2c1CCC2 [Darapladib (SB-480848), Darapladib, reference compound]
killing at 0.5 µM: 0% | killing at 2 µM: 0% | killing at 10 µM: 0% | killing at 50 µM [5]: 100% | killing at 50 µM [6]: 90% | mortality at 0.5 µM [7]: 0% | mortality at 2 µM [10]: 0% | mortality at 10 µM [8]: 30% | mortality at 50 µM [9]: 100%

CN[C@]1(c2ccccc2)CC[C@]2(CC1)OCCc1c3cc(F)ccc3[nH]c12 [lexanopadol]
mortality at 0.5 µM [11]: 0% | mortality at 2 µM [11]: 0% | mortality at 10 µM [11]: 0% | mortality at 50 µM [11]: 100%

Cc1nc(Nc2ccc(F)cc2)nc(N2CCc3ccccc3C2C)c1C (stereo not shown) [revaprazan]
mortality at 0.5 µM [1]: 0% | mortality at 2 µM [2]: 0% | mortality at 10 µM [3]: 0% | mortality at 50 µM [4]: 100%

CCCCCCCOc1ccc(CCC(N)(CO)CO)cc1C(F)(F)F [MT-1303]
mortality at 0.5 µM [11]: 0% | mortality at 2 µM [11]: 0% | mortality at 10 µM [11]: 0% | mortality at 50 µM [11]: 100%

CC(CN1CCCCC1)C(=O)c1ccc2ccccc2c1 (stereo not shown) [KZ-111]
mortality at 0.5 µM [1]: 0% | mortality at 2 µM [2]: 0% | mortality at 10 µM [3]: 0% | mortality at 50 µM [4]: 100%

COCCNCc1ccc(-c2cc3nccc(Oc4ccc(NC(=O)C5(C(=O)Nc6ccc(F)cc6)CC5)cc4F)c3s2)nc1 [MG-516]
mortality at 0.5 µM [7]: 0% | mortality at 2 µM [10]: 0% | mortality at 10 µM [8]: 0% | mortality at 50 µM [9]: 100%

CC(OCCN1CCCCCC1)(c1ccccc1)c1ccc(Cl)cc1 (stereo not shown) [setastine]
mortality at 0.5 µM [1]: 0% | mortality at 2 µM [2]: 0% | mortality at 10 µM [3]: 0% | mortality at 50 µM [4]: 100%

CCCCOC(=O)C[S+]([O-])c1nc2cccnc2s1 (stereo not shown) [EF-4040]
mortality at 0.5 µM [11]: 0% | mortality at 2 µM [11]: 0% | mortality at 10 µM [11]: 0% | mortality at 50 µM [11]: 100%

CN1CCN(CCCN2c3ccccc3Sc3ccc(C(F)(F)F)cc32)CC1 [Trifluoperazine hydrochloride]
mortality at 0.5 µM [1]: 0% | mortality at 2 µM [2]: 0% | mortality at 10 µM [3]: 0% | mortality at 50 µM [4]: 100%

Cc1nnc(-c2cc3c(OC[C@@H](O)CN4CCC(c5ccc(Cl)c(Cl)c5)CC4)cccc3o2)o1 [WF-516]
mortality at 0.5 µM [11]: 0% | mortality at 2 µM [11]: 0% | mortality at 10 µM [11]: 0% | mortality at 50 µM [11]: 100%

CC(C)(SCC(=O)Nc1ccc([As](O)O)cc1)[C@@H](N)C(=O)O [PENAO]
mortality at 0.5 µM [1]: 0% | mortality at 2 µM [2]: 0% | mortality at 10 µM [3]: 0% | mortality at 50 µM [4]: 100%

O=c1c2ccccc2c(Cc2ccc(Cl)cc2)nn1C[C@H]1CCCN1CCCCc1ccc(OCCCN2CCCCCC2)cc1 [GSK-1004723D]
mortality at 0.5 µM [1]: 0% | mortality at 2 µM [2]: 0% | mortality at 10 µM [3]: 0% | mortality at 50 µM [4]: 100%

O=[N+]([O-])c1ccc(Cl)c([N+](=O)[O-])c1 [DNCB]
mortality at 0.5 µM [11]: 0% | mortality at 2 µM [11]: 0% | mortality at 10 µM [11]: 0%
